One series has as its system S. aureus (Rosenbach). Nature of the series: Broth microdilution assay for MIC (20% TSB, 50 mM Na2CO3, 1 mM MgCl2), Table 4A. It counts as cell-based, Staphylococcus aureus. The conditions noted are these: 3 log or greater reduction in bacterial growth over 16 hours. As to the method:
(§1) S. dublin (Lane), S. aureus (Rosenbach), P. acnes, ATCC 6919, E. coli K12 TOP10, and E. coli K12 55099 (protease neg.) bacterial strains were tested in the microbial inhibition assays described hereafter. The S. dublin (Lane), and S. aureus (Rosenbach) strains are available from ATCC (Staphylococcus aureus subsp. aureus Rosenbach (Number: 13150) and Salmonella choleraesuis serotype dublin (Number: 39184)). The strain of P. acnes was purchased from ATCC (strain #6919) (Manassas, Va.). The E. coli K12 strains TOP 10 and 55099 were purchased from Invitrogen (Carlsbad, Calif.) and ATCC respectively. HeLa cells were purchased from ATCC (CCL2). Tryptic soy broth (TSB), Brucella broth, reinforced Clostridial broth and agar were purchased from Becton & Dickinson (distributed by VWR, West Chester, Pa.). All plastic consumables were purchased from VWR (West Chester, Pa.). […]
(§2) The minimum inhibitory concentration (MIC) of peptide compositions for S. aureus, S. dublin and E. coli was determined in a broth microdilution assay. […] The MIC for each peptide for each microorganism was determined by three methods. The growth of bacteria was directly determined by measuring the absorption at 600 nm using a Versamax microplate reader (Molecular Devices). […] After incubation for 16 hours at 37° C. bacterial growth was evaluated and documented (Alpha Innotech gel documentation system).

The next series concerns S. dublin (Lane). Nature of the series: Broth microdilution assay for MIC, Table 4A. The class given is cell-based, Salmonella dublin. The conditions noted are these: 3 log or greater reduction in bacterial growth over 16 hours. Here is the method: as §1, §2
For orientation: Dilution methods test growth across graded concentrations, often in twofold steps.

In another series the test system is P. acnes, ATCC 6919. Nature of the series: Broth microdilution assay for P. acnes MBC, Table 4B. The class given is cell-based, Propionibacterium acnes. The conditions noted are these: 3 log or greater reduction in CFU/milliliter after 2.5 hours. The text has this:
The strain of P. acnes was purchased from ATCC (strain #6919) (Manassas, Va.). […] HeLa cells were purchased from ATCC (CCL2). Tryptic soy broth (TSB), Brucella broth, reinforced Clostridial broth and agar were purchased from Becton & Dickinson (distributed by VWR, West Chester, Pa.). All plastic consumables were purchased from VWR (West Chester, Pa.). Chemicals were purchased from Sigma Aldrich (St. Louis, Mo.). DMEM, antibiotics and cell culture supplements were purchased from Invitrogen (Carlsbad, Calif.), fetal calf serum (FCS) was purchased from Hyclone (Logan, Utah). […] For propagation in liquid culture individual colonies were inoculated in […] of TSB broth for 16 hours at 37° C. under constant shaking. P. acnes was grown on Brucella broth blood agar plates (supplemented with 5% defibrinated sheep blood, […] hemin and […] vitamin K) under anaerobic conditions (GasPak system, Becton & Dickinson) for 96 hours at 37° C. For propagation in liquid culture individual colonies were inoculated in […] of reinforced Clostridial broth under anaerobic conditions for 72 hours at 37° C. […] The minimum bactericidal concentration (MBC) of peptide compositions for P. acnes was determined in a microdilution assay. […] The appearance of bacterial colonies was evaluated and documented.

A further series has as its system human red blood cells. The class given is cell-based. The conditions noted are these: red cells of human, 100 Micromolar. Here is the method: Hemoglobin-release assays with human red blood cells (RBC) were performed to determine the hemolytic activity of granulysin peptides. Human RBCs (San Diego Blood Bank, San Diego, Calif.) were washed three times in PBS buffer (8 mM Na2HPO4, 1.5 mM KH2PO4, 140 mM NaCl and 2.7 mM KCl, pH 7.4), resuspended in PBS to the concentration of 5% (v/v). The RBC were then exposed to different peptide compositions at various concentrations (100-6.25 micromolar) and incubated at 37° C. for 60 minutes in a total volume of 120 microliters. Every experiment included a negative control without peptide and maximum control treated with 5% TX-100 for complete hemoglobin release. Samples were centrifuged for 1 minute at 13,000 g to remove debris and intact cells. The hemoglobin-containing supernatant was removed and transferred to a microwell plate. Hemoglobin release was quantified at A540 using a Versamax plate reader (Molecular Devices). The degree of hemolysis is expressed as percentage of hemolysis compared to the […], using the following formula: % hemolysis=(sample−neg. control)/(max. control−neg. control)×100.

For series [1], the system named is Propionibacterium acnes ATCC 6919. It counts as cell-based. Here is the method:
A second method that was used to determine the MIC in P. acnes for selected antimicrobial agents was a non-standard broth microdilution method that used an assay buffer composed of reinforced Clostridial broth. Briefly, a log-phase bacterial culture of P. acnes was used to inoculate wells of a 96-well plate so that the final inoculum for each well contained 5×10^5 to 1×10^6 CFU/milliliter. […] Plates were incubated for 48-72 hours at 37° C. in a GasPak anaerobic chamber. The lowest concentration of peptide that contained no visible growth as evidenced by a lack of turbidity when compared to the control (no peptide) was determined as the MIC. MIC values that utilized this method of MIC determination are indicated in Table 9 with a subscript letter “d.”

A further series relates to E. coli K12 TOP10. The conditions noted are these: 3 log or greater reduction in bacterial growth over 16 hours.
Series [2] deals with E. coli K12 55099 (protease neg.). The conditions noted are these: 3 log or greater reduction in bacterial growth over 16 hours.
For series [3], the system named is Staphylococcus aureus ATCC 29213. The conditions noted are these: ATCC 29213, pH 7.4.
The test system of another series is Salmonella dublin (Lane). The conditions noted are these: pH 7.4.

Values after ≈ are worked out from the molar mass of the structure shown.

As for `CSCC[C@@H](NC(=O)[C@@H](Cc1ccccc1)NC(=O)[C@@H](CC(N)=O)NC(=O)[C@@H](CCCNC(=N)N)NC(=O)[C@@H](CO)NC(=O)[C@@H](Cc1c[nH]c2ccccc12)NC(=O)[C@@H](CC(=O)O)NC(=O)[C@@H](CCCNC(=N)N)NC(=O)[C@@H](Cc1c[nH]c2ccccc12)NC(=O)[C@@H](CCCNC(=N)N)NC(=O)[C@@H](CO)NC(=O)[C@@H](CCCNC(=N)N)NC(=O)CNC(=O)[C@H](NC(=O)[C@@H](CCCNC(=N)N)NC(=O)[C@@H](CO)NC(=O)[C@H](NC(=O)[C@@H](CCCNC(=N)N)NC(=O)[C@H](NC(C)=O)[C@H](C)O)C(C)C)[C@H](C)O)C(=O)N[C@H](CCCNC(=N)N)C(=O)N[C@H](C)C(=O)N[C@H](C)C(=O)N[C@H](CCCN)C(=O)N[C@H](CCCN)C(=O)N[C@H](CCCN)C(=O)N[C@H](CCCN)C(=O)N[C@H](CCCN)C(=O)N[C@H](CCCN)C(=O)N[C@H](CCCN)C(=O)N[C@H](CCCN)C(N)=O` [Peptide 32, Ac-trvsrtgrsrwrdwsrnfmraaoooooooo-NH2], the “Minimum inhibitory concentration (MIC) S. aureus” value in the series with S. aureus (Rosenbach) was 2 µM (≈ 7.41 µg/mL). Besides, in the series with S. dublin (Lane), the “Minimum inhibitory concentration (MIC) S. dublin” value came to 2 µM (≈ 7.41 µg/mL). Further, in the series with P. acnes, ATCC 6919, the “Minimum bactericidal concentration (MBC) for P. acnes” value is 2 micromolar units. In addition, in the series with human red blood cells, the “Hemolytic effect on human red blood cells” value amounted to 2%. Further, the “MIC P. acnes” value in series [1] turned out to be 3 µg·days/mL. Also, in the series on E. coli K12 TOP10, the “Minimum inhibitory concentration (MIC) E. coli Top10” value is 2 µM (≈ 7.41 µg/mL). In [2], the “Minimum inhibitory concentration (MIC) E. coli 55099” value is 1 µM (≈ 3.71 µg/mL). Further, in [3], the “MIC S. aureus” value was found to be 3b ug/mL. Besides, the “MIC S. dublin” value against Salmonella dublin (Lane) is 3b ug/mL.

These data come from US20050282755A1, “Compositions having antimicrobial activity and uses thereof” (priority 2004, published 2005).
